Values quoted from earlier work, collected in article PMC10382406, “Head-to-head comparison of different classes of FAP radioligands designed to increase tumor residence time: monomer, dimer, albumin binders, and small molecules vs peptides” (European Journal of Nuclear Medicine and Molecular Imaging, 2023).

Details: same methodology; cited from earlier work

In the case of [^177Lu]Lu-DOTA-TATE, the “Estimated absorbed dose to the kidneys” value is given as 2.13E-01 mGy/MBq and the Red marrow dose is given as 1.25E-03 mGy/MBq.
